Bioassay records: PubChem BioAssay, several laboratories
NRP1-CendR mod: modulators of CendR peptide binding to NRP-1, primary screen, biochemical, fluorescence polarization, uHTS; Neuropilin-1 (Homo sapiens), O14786; FAM-RPARPAR peptide binding to NRP-1; inhibition, % at 25 µM; 0.85% of 360,000 active; AID 602438, 2012;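 active means inhibition or corrected inhibition above about 18%, plus a signal ratio from 0.5 to 1.5, limit read from the data, passing the limit was not always enough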
ARFGAP1 inhibitor: inhibitors of rat ARFGAP1 GAP activity, primary screen, biochemical, fluorescence polarization, GDP tracer | ADP-ribosylation factor GTPase-activating protein 1 (Rattus norvegicus), Q62848 | inhibition, % at 16.5 µM | Arfgap1-stimulated ARF1 GTP hydrolysis, GDP FP detection | 0.26% of 360,000 active;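 active means inhibition above a per-plate limit, mean inhibition of low control wells plus 3 SD, cut at about 25% in these data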;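 further: 0% = DMSO wells with enzyme and 100% = wells lacking Arfgap1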
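System: truncated rat Arfgap1 GAP domain / Benchmarks: high control wells lacking Arfgap1, low control full reaction with DMSO / Times: compound-enzyme preincubation 20 min, reaction 120 min, detection 60 min, 25 °C / Repeats: one replicate per compound / Also added: human ARF1(Δ1-17)-GTP substrate / Measured by: Tracer-displacement fluorescence polarization with EDTA stop, 620/688 nm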
MC4R antagonist: MC4R antagonists of cAMP signaling, primary screen, cell-based, TR-FRET, antagonist arm of biased-ligand search. AID 540295, 2011. 0.48% of 360,000 active. Melanocortin receptor 4 (Homo sapiens), P32245. MC4R-expressing cells, MTII-stimulated cAMP, LANCE TR-FRET. inhibition, % at 6.5 µM;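 active means inhibition above its plate's cutoff, the mean of tested wells on that plate plus 3 SD, cut at about 29% in these data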;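 further: 0% = Melanotan II alone and 100% = Melanotan II plus saturating MCL0020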
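system = U2OS cells with stable human MC4R expression | also added = Melanotan II challenge after compound preincubation | dosing = one concentration, 6.5 µM nominal | incubation = compound 30 min, challenge 1 h, detection 1 h | measured by = TR-FRET with Eu-cAMP and labeled anti-cAMP, 671 nm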
MC4R barr agon: MC4R agonists recruiting beta-arrestin, primary screen, cell-based, luminescence, agonist arm of biased-ligand search; 0.98% of 360,000 active; U2OS MC4R beta-arrestin complementation; percent of melanotan II response, DMSO zero; AID 540308, 2011; Melanocortin receptor 4 (Homo sapiens), P32245; activation, % at 8.9 µM;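 active means activation above a per-plate cutoff, the mean activation of sample wells on that plate plus 3 SD, cut at about 8% in these data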
ASAP1 GAP inh: inhibitors of human ASAP1 ArfGAP activity, primary screen, biochemical, fluorescence polarization; ASAP1-stimulated ARF1 GTP hydrolysis, GDP FP detection; Arf-GAP with SH3 domain, ANK repeat and PH domain-containing protein 1 (Homo sapiens), …; AID 624377, 2012; inhibition, % at 16.5 µM; 0.19% of 360,000 active; in the data active means inhibition above about 25%;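 further: 0% = vehicle with enzyme and substrate and 100% = no enzyme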
Yeast UUG start-1: alters start codon recognition fidelity in yeast. S. cerevisiae UUG-firefly luciferase reporter, luminescence/redox ratio. AID 602363. activity score, % at 18.7 µM. hit rate 0.13% among 350,000;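 active = replicate mean at a twofold rise or more, about +100% in these data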;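 note: firefly luciferase made from a UUG start codon reports start codon fidelity; reporter light over untreated wells divided by growth signal over untreated wells; some hits fall short of that in this replicate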
Yeast UUG start-2: enhancers of UUG start codon usage in yeast, dose response, S. cerevisiae, UUG firefly luciferase, cherry-pick, set 2 | shares compounds with Yeast UUG start-1 | luminescence, 4 h; 100% means double the DMSO signal | activation, % at 38 µM | 540 tested, under 10 active;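 active means signal increase whose fitted curve reaches an absolute level of 40 at a concentration under 10 µM; inactive means activity opposite to the expected increase, or the rest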
* = called active by the depositor; i = inactive; x = no result. Hits are enriched below; roughly 2.3% of the tested compounds scored in any of these assays.

Amino acid sequences for entries named in this document (tags omitted).
Neuropilin-1 (Homo sapiens), O14786, UniProt O14786, whole entry, looked up: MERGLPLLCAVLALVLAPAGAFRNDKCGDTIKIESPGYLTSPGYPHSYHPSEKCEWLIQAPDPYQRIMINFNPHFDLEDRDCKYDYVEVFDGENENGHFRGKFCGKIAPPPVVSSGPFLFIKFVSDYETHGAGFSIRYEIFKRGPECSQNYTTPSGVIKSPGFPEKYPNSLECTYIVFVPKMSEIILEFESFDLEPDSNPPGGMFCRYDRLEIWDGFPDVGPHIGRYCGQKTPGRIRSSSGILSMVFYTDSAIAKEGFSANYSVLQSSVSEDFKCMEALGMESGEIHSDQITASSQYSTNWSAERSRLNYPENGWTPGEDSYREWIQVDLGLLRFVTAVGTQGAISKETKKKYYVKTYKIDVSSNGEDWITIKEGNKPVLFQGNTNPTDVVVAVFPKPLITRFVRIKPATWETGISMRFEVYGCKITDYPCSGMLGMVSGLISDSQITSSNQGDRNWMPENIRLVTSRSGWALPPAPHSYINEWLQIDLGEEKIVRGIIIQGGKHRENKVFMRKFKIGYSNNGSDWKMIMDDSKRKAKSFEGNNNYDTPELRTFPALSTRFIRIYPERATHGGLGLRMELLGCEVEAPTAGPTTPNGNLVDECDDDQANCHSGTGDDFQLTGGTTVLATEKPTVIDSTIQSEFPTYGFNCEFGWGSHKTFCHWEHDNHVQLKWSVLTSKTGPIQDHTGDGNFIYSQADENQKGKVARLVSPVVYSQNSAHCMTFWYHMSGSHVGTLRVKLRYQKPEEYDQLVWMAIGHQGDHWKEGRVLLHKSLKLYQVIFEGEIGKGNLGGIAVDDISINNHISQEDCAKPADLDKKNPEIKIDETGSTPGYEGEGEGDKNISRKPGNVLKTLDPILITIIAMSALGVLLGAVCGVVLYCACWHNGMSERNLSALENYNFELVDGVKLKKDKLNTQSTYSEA
ADP-ribosylation factor GTPase-activating protein 1 (Rattus norvegicus), Q62848, UniProt Q62848, whole entry, looked up: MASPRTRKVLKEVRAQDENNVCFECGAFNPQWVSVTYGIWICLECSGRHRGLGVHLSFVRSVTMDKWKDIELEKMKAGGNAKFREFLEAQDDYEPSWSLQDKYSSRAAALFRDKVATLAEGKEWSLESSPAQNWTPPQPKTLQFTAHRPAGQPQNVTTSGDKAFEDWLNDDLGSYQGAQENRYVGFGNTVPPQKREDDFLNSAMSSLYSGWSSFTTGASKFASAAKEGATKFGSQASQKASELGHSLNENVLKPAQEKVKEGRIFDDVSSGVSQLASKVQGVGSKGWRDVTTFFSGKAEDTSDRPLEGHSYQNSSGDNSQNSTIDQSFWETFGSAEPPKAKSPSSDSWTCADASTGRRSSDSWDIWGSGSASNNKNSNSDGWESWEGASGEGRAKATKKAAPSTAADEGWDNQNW
Melanocortin receptor 4 (Homo sapiens), P32245, UniProt P32245, whole entry, looked up: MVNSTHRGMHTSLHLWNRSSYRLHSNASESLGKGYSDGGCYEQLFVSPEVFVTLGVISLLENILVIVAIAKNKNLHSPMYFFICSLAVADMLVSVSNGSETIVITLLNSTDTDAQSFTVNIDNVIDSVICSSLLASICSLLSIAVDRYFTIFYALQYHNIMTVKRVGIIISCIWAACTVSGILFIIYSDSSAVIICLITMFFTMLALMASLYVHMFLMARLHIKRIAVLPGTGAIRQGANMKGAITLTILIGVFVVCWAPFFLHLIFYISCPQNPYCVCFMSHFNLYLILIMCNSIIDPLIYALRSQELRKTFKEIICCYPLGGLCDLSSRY

entry	Molecule	NRP1-CendR mod	ARFGAP1 inhibitor	MC4R antagonist	MC4R barr agon
1	Cc1csc(NC(=O)c2ccco2)n1	-11	1	5	0
2	O=C(O)Cc1csc(NC(=O)c2ccco2)n1	-14	-6	5	-2
3	COc1ccc(S(=O)(=O)N(C)C[C@@H]2Oc3c(NC(=O)c4ccncc4)cccc3C(=O)N([C@H](C)CO)C[C@H]2C)cc1	x	x	x	x
4	C[C@@H](NC(=O)C[C@@H]1CC[C@H](NC(=O)Nc2ccc3c(c2)OCO3)[C@@H](CO)O1)c1ccccc1	x	x	x	x
5	C[C@@H](NC(=O)C[C@@H]1CC[C@H](NC(=O)C2CCOCC2)[C@H](CO)O1)c1ccccc1	x	x	x	x
6	C[C@@H]1CN([C@H](C)CO)C(=O)c2cc(C#Cc3ccc(F)cc3)cnc2O[C@@H]1CN(C)C	x	x	x	x
7	C[C@H]1CCCCO[C@H](CN(C)C(=O)c2ccccc2)[C@@H](C)CN([C@@H](C)CO)C(=O)c2cc(NC(=O)CCC(F)(F)F)ccc2O1	x	x	x	x
8	C[C@@H]1CCCCO[C@H](CN(C)CC2CCCCC2)[C@@H](C)CN([C@H](C)CO)C(=O)c2cc(NS(=O)(=O)c3cn(C)cn3)ccc2O1	x	x	x	x
9	C[C@@H]1CCCCO[C@H](CN(C)Cc2ccc(C(F)(F)F)cc2)[C@H](C)CN([C@@H](C)CO)C(=O)c2cc(NC(=O)Nc3ccc(F)cc3)ccc2O1	x	x	x	x
10	C[C@H](CO)N1C[C@H](C)[C@@H](CN(C)CC2CCCCC2)OCCCC[C@H](C)Oc2ccc(NS(=O)(=O)c3cn(C)cn3)cc2C1=O	x	x	x	x
11	C[C@H](CO)N1C[C@H](C)[C@H](CN(C)Cc2ccccc2)OCCCC[C@H](C)Oc2ccc(NS(=O)(=O)c3ccc(F)cc3)cc2C1=O	x	x	x	x
12	C[C@H](CO)N1C[C@H](C)[C@H](CN(C)Cc2ccc(C(F)(F)F)cc2)OCCCC[C@H](C)Oc2ccc(NC(=O)Nc3ccc(F)cc3)cc2C1=O	x	x	x	x

entry	ASAP1 GAP inh	Yeast UUG start-1	Yeast UUG start-2
1	13	-20	x
2	2	373*	10
3	x	-12	x
4	x	127*	i
5	x	171*	i
6	x	2	x
7	x	128*	i
8	x	4	x
9	x	7	x
10	x	136*	i
11	x	235*	i
12	x	120*	i

The list continues:
entry	Molecule	NRP1-CendR mod	ARFGAP1 inhibitor	MC4R antagonist	MC4R barr agon
13	C[C@@H]1CN([C@@H](C)CO)C(=O)c2cc(NS(=O)(=O)c3ccc(Cl)cc3)ccc2O[C@@H]1CN(C)S(=O)(=O)c1ccccc1	x	x	x	x
14	COc1ccc(NC(=O)N[C@@H]2CC[C@@H](CCNC(=O)c3cc(Cl)cc(Cl)c3)O[C@H]2CO)cc1	x	x	x	x
15	O=C(CN1CCOCC1)NCC[C@@H]1CC[C@@H](NC(=O)c2ccccc2F)[C@H](CO)O1	x	x	x	x
16	C[C@@H]1CN([C@H](C)CO)S(=O)(=O)c2ccc(-c3ccccc3)cc2O[C@@H]1CN(C)C(=O)C1CCCCC1	x	x	x	x
17	Cc1noc(C)c1NC(=O)N(C)C[C@@H]1OCCCC[C@H](C)Oc2ccc(NS(=O)(=O)c3ccc(F)cc3)cc2C(=O)N([C@@H](C)CO)C[C@@H]1C	x	x	x	x
18	CC(C)NC(=O)Nc1cccc2c1O[C@H](CN(C)Cc1ccc(C(=O)O)cc1)[C@H](C)CN([C@H](C)CO)C2=O	x	x	x	x
19	Cc1noc(C)c1NC(=O)N(C)C[C@H]1OCCCC[C@@H](C)Oc2ccc(NS(=O)(=O)c3ccc(F)cc3)cc2C(=O)N([C@@H](C)CO)C[C@H]1C	x	x	x	x
20	CC(C)NC(=O)Nc1cccc2c1O[C@H](CN(C)Cc1ccccc1)[C@H](C)CN([C@@H](C)CO)C2=O	x	x	x	x

entry	ASAP1 GAP inh	Yeast UUG start-1	Yeast UUG start-2
13	x	-8	x
14	x	-1	x
15	x	4	x
16	x	5	x
17	x	183*	i
18	x	132*	i
19	x	-1	x
20	x	-15	x

Compound profiles (already shown):
Cc1csc(NC(=O)c2ccco2)n1 as listed: NRP1-CendR mod: -11; ARFGAP1 inhibitor: 1; MC4R antagonist: 5; MC4R barr agon: 0; ASAP1 GAP inh: 13; Yeast UUG start-1: -20; Yeast UUG start-2: x
C[C@@H]1CCCCO[C@H](CN(C)CC2CCCCC2)[C@@H](C)CN([C@H](C)CO)C(=O)c2cc(NS(=O)(=O)c3cn(C)cn3)ccc2O1 as listed: NRP1-CendR mod: x; ARFGAP1 inhibitor: x; MC4R antagonist: x; MC4R barr agon: x; ASAP1 GAP inh: x; Yeast UUG start-1: 4; Yeast UUG start-2: x
